The nature of this data set: Enzyme kinetic studies of CPG2-derived enzymes in detergent soluble cell extracts, MTX as substrate. Type of data set: biochemical. The method, then:
COS-7 cells were used for transient expression to provide detergent soluble extracts containing large amounts of CPG2*, CPG2*(Q)3 and stCPG2(Q)3 enzymes for enzyme kinetic studies. Detergent soluble cell extracts, and enzyme kinetic analyses have been described previously (Marais et al (1996) Cancer Res. 56, 4735-4742; Marais et al (1997) Nature Biotech. 15, 1373-1377). Levels of CPG2 protein in detergent soluble extracts were determined by quantitative immunoprotein blotting using a PhosphorImager standardised with purified CPG2 expressed in insect cells. Kinetic parameters of the CPG2 derived proteins were measured, in all cases using 50 ng of CPG2* per assay, and the equivalent amount of the internally expressed and cell-surface tethered variants. The specific activity of COS/CPG2* preparations containing 50 ng of CPG2* protein was assigned as 100%.

Where two headings read alike, the source gives them in different places.

B1: CPG2*(Q)3: cytosolic CPG2* bearing three asparagine to glutamine mutations (N222, N264, N272) (protein)
chain: ALAQKRDNVLFQAATDEQPAVIKTLEKLVNIETGTGDAEGIAAAGNFLEAELKNLGFTVTRSKSAGLVVGDNIVGKIKGRGGKNLLLMSHMDTVYLKGILAKAPFRVEGDKAYGPGIADDKGGNAVILHTLKLLKEYGVRDYGTITVLFNTDEEKGSFGSRDLIQEEAKLADYVLSFEPTSAGDEKLSLGTSGIAYVQVQITGKASHAGAAPELGVNALVEASDLVLRTMNIDDKAKNLRFQWTIAKAGQVSNIIPASATLNADVRYARNEDFDAAMKTLEERAQQKKLPEADVKVIVTRGRPAFNAGEGGKKLVDKAVAYYKEAGGTLGVEERTGGGTDAAYAALSGKPVIESLGLPGFGYHSDKAEYVDISAIPRRLYMAARLIMDLGAGK
Turning to B1, the “Catalytic activity (%)” value (specific activity of COS/CPG2* (50 ng CPG2*) assigned as 100%) is recorded as 32%. Further, the Km reads like this: (substrate MTX, detergent soluble cell extract, read-out: Km (μM MTX)) 10.4 µM; (unit μm [sic], read-out: Km) 7 to 10 µM.

Usually Km stands for the substrate concentration at which the rate is half of its maximum.

These data come from US20040014187A1, “Bacterial carboxypeptidase cpg2 variants and their use in gene directed enzyme prodrug therapy” (priority 2000, published 2004).
